In patent publication US20240360179A1, “STAPLED PEPTIDES AND METHODS THEREOF” (FOG PHARMACEUTICALS, INC., priority 2021, published 2024):
Where two headings read alike, the source gives them in different places.

By UniProt entry, the sequences of proteins in these tests, tags left out.
UniProt P35222, whole entry: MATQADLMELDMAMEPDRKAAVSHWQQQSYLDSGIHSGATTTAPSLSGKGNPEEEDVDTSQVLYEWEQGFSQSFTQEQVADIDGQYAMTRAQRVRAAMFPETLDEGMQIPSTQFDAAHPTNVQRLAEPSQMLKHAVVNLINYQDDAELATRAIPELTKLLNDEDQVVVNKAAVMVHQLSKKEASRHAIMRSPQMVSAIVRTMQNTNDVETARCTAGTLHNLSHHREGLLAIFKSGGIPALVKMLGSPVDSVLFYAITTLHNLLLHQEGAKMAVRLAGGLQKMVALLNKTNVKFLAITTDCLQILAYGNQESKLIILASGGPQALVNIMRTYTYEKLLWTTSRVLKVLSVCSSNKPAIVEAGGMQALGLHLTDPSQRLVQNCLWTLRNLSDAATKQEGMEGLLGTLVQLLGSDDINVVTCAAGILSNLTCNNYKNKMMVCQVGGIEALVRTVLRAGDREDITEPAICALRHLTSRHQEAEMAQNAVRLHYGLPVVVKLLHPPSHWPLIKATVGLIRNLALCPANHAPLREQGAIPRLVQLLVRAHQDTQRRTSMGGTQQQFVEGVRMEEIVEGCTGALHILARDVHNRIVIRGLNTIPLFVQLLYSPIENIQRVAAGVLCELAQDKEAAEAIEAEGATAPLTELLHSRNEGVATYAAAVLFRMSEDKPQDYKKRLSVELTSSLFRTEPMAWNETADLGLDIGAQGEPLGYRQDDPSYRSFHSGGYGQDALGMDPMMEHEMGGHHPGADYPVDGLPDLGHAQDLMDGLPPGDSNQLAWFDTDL

Experiments:
[1] = target: T1, full-length B-Catenin (Uniprot ID P35222) (Homo sapiens, UniProt P35222); assay type: binding; conditions: read-out: beta-Catenin FP IC50
T1 construct: 10 nM full-length B-Catenin (Uniprot ID P35222)

[2] = target: beta-catenin/TCF4 interaction (Homo sapiens, UniProt P35222); assay type: cell-based; parameters: host or cells: HEK293; conditions: read-out: NanoBRET Abs IC50
[3] = competition fluorescence polarization

Work on “Ac-PL3-Asp-Npg-B5-Asp-3COOHF-Aib-Ala-Phe-Lys*3-PyrS2-3Thi-BztA-hGlnR*3-Ala-NH2 [I-787]” yielded an IC50 [1, 3] of under 0.05 µM and an IC50 [2] of 1.5 to 3 µM.
In the case of “Ac-PL3-Asp-Npg-B5-Asp-3COOHF-Aib-Ala-Phe-Lys*3-PyrS2-3Thi-BztA-hGlnR*3-NH2 [I-786]”, the IC50 [1, 3] is reported as under 0.05 µM and the IC50 [2] is reported as 3 to 10 µM.
In the case of “Ac-PL3-Asp-Npg-B5-Asp-3COOHF-Aib-Ala-Phe-Lys*3-PyrS2-Abu-BztA-GlnR*3-Ala-NH2 [I-269]”, the IC50 [1, 3] is reported as 0.05 to 0.2 µM and the IC50 [2] is reported as over 10 µM.
For “Ac-PL3-Asp-Npg-B5-Asp-3COOHF-Aib-Ala-Phe-Lys*3-PyrS2-BztA-34ClF-GlnR*3-Ala-NH2 [I-945]”, the IC50 [1, 3] was under 0.05 µM and the IC50 [2] was 3 to 10 µM.
In the case of “Ac-PL3-Asp-Npg-B5-Asp-3COOHF-Aib-Ala-Phe-Lys*3-PyrS2-BztA-BztA-GlnR*3-Ala-NH2 [I-940]”, the IC50 [1, 3] is reported as under 0.05 µM and the IC50 [2] is reported as 3 to 10 µM.
Work on “Ac-PL3-Asp-Npg-B5-Asp-3COOHF-Aib-Ala-Phe-Lys*3-PyrS2-Cpa-BztA-GlnR*3-Ala-NH2 [I-282]” yielded an IC50 [1, 3] of under 0.05 µM and an IC50 [2] of 3 to 10 µM.
Substance “Ac-PL3-Asp-Npg-B5-Asp-3COOHF-Aib-Ala-Phe-Lys*3-PyrS2-CypA-34ClF-GlnR*3-Ala-NH2 [I-476]” has an IC50 [1, 3] of under 0.05 µM and an IC50 ([2]; absolute IC50) of 3 to 10 µM.
Work on “Ac-PL3-Asp-Npg-B5-Asp-3COOHF-Aib-Ala-Phe-Lys*3-PyrS2-HepG-34ClF-GlnR*3-Ala-NH2 [I-944]” yielded an IC50 [1, 3] of under 0.05 µM and an IC50 [2] of over 10 µM.
In the case of “Ac-PL3-Asp-Npg-B5-Asp-3COOHF-Aib-Ala-Phe-Lys*3-PyrS2-HexG-34ClF-GlnR*3-Ala-NH2 [I-942]”, the IC50 [1, 3] is reported as under 0.05 µM and the IC50 [2] is reported as over 10 µM.
“Ac-PL3-Asp-Npg-B5-Asp-3COOHF-Aib-Ala-Phe-Lys*3-PyrS2-HexG-BztA-GlnR*3-Ala-NH2 [I-936]” showed an IC50 [1, 3] of 0.05 to 0.2 µM and an IC50 [2] of over 10 µM.
In the case of “Ac-PL3-Asp-Npg-B5-Asp-3COOHF-Aib-Ala-Phe-Lys*3-PyrS2-Leu-BztA-GlnR*3-Ala-NH2 [I-274]”, the IC50 [1, 3] is reported as 0.05 to 0.2 µM and the IC50 [2] is reported as over 10 µM.
“Ac-PL3-Asp-Npg-B5-Asp-3COOHF-Aib-Ala-Phe-Lys*3-PyrS2-Npg-BztA-GlnR*3-Ala-NH2 [I-278]” was tested, and the IC50 [1, 3] was 0.05 to 0.2 µM and the IC50 [2] was over 10 µM.
Work on “Ac-PL3-Asp-Npg-B5-Asp-3COOHF-Aib-Ala-Phe-Lys*3-PyrS2-Phe-34ClF-GlnR*3-NH2 [I-871]” yielded an IC50 [1, 3] of under 0.05 µM and an IC50 [2] of under 1.5 µM.
With “Ac-PL3-Asp-Npg-B5-Asp-3COOHF-Aib-Ala-Phe-Lys*3-PyrS2-Phe-34ClF-GlnR*3-Phe-NH2 [I-874]” the IC50 [1, 3] was under 0.05 µM and the IC50 [2] was 3 to 10 µM.
Substance “Ac-PL3-Asp-Npg-B5-Asp-3COOHF-Aib-Ala-Phe-Lys*3-PyrS2-Phe-34ClF-GlnR*3-Pro-NH2 [I-872]” has an IC50 [1, 3] of under 0.05 µM and an IC50 [2] of 3 to 10 µM.
“Ac-PL3-Asp-Npg-B5-Asp-3COOHF-Aib-Ala-Phe-Lys*3-PyrS2-Phe-34ClF-GlnR*3-Ser-NH2 [I-873]” gave an IC50 [1, 3] of under 0.05 µM and an IC50 [2] of 1.5 to 3 µM.
Work on “Ac-PL3-Asp-Npg-B5-Asp-3COOHF-Aib-Ala-Phe-Lys*3-PyrS2-[15PyraPy]2NH2F-BztA-GlnR*3-Ala-NH2 [I-1752]” yielded an IC50 [1, 3] of under 0.05 µM and an IC50 [2] of 3 to 10 µM.
“Ac-PL3-Asp-Npg-B5-Asp-3COOHF-Aib-Ala-Phe-Lys*3-PyrS2-hLeu-BztA-GlnR*3-Ala-NH2 [I-276]” showed an IC50 [1, 3] of under 0.05 µM and an IC50 [2] of 3 to 10 µM.
“Ac-PL3-Asp-Npg-B5-Asp-3COOHF-Aib-Ala-Phe-Lys*3-PyrS2-hnLeu-5IndA-GlnR*3-Ala-NH2 [I-775]” gave an IC50 [1, 3] of under 0.05 µM and an IC50 [2] of 3 to 10 µM.
For “Ac-PL3-Asp-Npg-B5-Asp-3COOHF-Aib-Ala-Phe-Lys*3-PyrS2-hnLeu-BztA-GlnR*3-Leu-Ser-NH2 [I-955]”, the IC50 [1, 3] was 0.05 to 0.2 µM and the IC50 [2] was 1.5 to 3 µM.
Substance “Ac-PL3-Asp-Npg-B5-Asp-3COOHF-Aib-Ala-Phe-Lys*3-PyrS2-hnLeu-SbMeBzta-GlnR*3-Ala-NH2 [I-774]” has an IC50 [1, 3] of 0.2 to 0.75 µM and an IC50 [2] of over 10 µM.
“Ac-PL3-Asp-Npg-B5-Asp-3COOHF-Aib-Ala-Phe-Lys*3-PyrS2-nLeu-34ClF-GlnR*3-Ala-NH2 [I-474]” was tested, and the IC50 [1, 3] was under 0.05 µM and the IC50 ([2]; absolute IC50) was 3 to 10 µM.
With “Ac-PL3-Asp-Npg-B5-Asp-3COOHF-Aib-Ala-Phe-TriAzLys*3-R3MePyrSc7-3Thi-BztA-sAla*3-Ala-NH2 [I-1810]” the IC50 [1, 3] was under 0.05 µM and the IC50 [2] was 3 to 10 µM.
For “Ac-PL3-Asp-Npg-B5-Asp-3COOHF-Aib-Ala-Phe-TriAzLys*3-R3iPrPyrSc7-3Thi-BztA-sAla*3-Ala-NH2 [I-1814]”, the IC50 [1] was under 0.05 µM and the IC50 [2] was over 10 µM.
“Ac-PL3-Asp-Npg-B5-Asp-3COOHF-Aib-Ala-Phe-TriAzLys*3-S3MePyrSc7-3Thi-BztA-sAla*3-Ala-NH2 [I-1809]” was tested, and the IC50 [1, 3] was under 0.05 µM and the IC50 [2] was 1.5 to 3 µM.
Work on “Ac-PL3-Asp-Npg-B5-Asp-3COOHF-Aib-Ala-Phe-TriAzLys*3-S3iPrPyrSc7-3Thi-BztA-sAla*3-Ala-NH2 [I-1812]” yielded an IC50 [1] of under 0.05 µM and an IC50 [2] of over 10 µM.
“Ac-PL3-Asp-Npg-B5-Asp-3COOHF-Aib-Ala-Phe-TriAzLys*3-S3iPrPyrSc7-3Thi-BztA-sAla*3-Ala-NH2 [I-1813]” gave an IC50 [1] of under 0.05 µM and an IC50 [2] of 3 to 10 µM.
